In paper PMC9975938 one finds Kd data, which are given here for 1 substance.

Chains of the proteins cited; added tags and fusions are not shown. Lines headed by an entry give the natural chain unless they say otherwise; changes in a name come on top.
UniProt P68369: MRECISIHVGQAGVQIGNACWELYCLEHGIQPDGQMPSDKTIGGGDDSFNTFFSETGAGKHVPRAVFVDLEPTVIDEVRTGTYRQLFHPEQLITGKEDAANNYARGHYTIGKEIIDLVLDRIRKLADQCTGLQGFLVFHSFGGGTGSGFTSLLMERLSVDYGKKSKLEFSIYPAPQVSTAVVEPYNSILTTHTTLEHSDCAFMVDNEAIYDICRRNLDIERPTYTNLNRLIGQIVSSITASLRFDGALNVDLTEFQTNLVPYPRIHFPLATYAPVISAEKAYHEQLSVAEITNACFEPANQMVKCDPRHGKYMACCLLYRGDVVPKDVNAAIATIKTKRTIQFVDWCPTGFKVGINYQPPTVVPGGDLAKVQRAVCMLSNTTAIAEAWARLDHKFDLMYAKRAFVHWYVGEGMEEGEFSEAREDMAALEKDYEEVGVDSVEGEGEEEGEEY

pKd: −log10 of the molar value.

For orientation: pKd means the negative decadic logarithm of the Kd, by convention in mol/L.

Assay [1] has as its target microtubules polymerised from Ttll1 −/− Ttll7 −/− double-knockout mouse brain tubulin (mouse (endogenous in brain)) (UniProt P68369). In words: TIRF microscopy of fluorescent protein on immobilised microtubules.
Assay [2] concerns the target microtubules polymerised from wild-type mouse brain tubulin (mouse (endogenous in brain)) (UniProt P68369). Described as above.

For the substance “Tau(2N4R) of human Tau fused with C-terminal mCherry (from UniProt P10636-8 1-441) (natural protein)”, the pKd was 6.15 in assay [1] and 6.32 in assay [2].
